# Reference: patent US20160152708A1
# Key:
# [1] = molecular target: Higher affinity class of cell surface receptors for MIF on IFNγ-activated THP-1 monocytes; experiment: flow cytometry, Scatchard analysis, Alexa-MIF on IFNγ-treated THP-1 cells at 4° C.
# [2] = molecular target: Lower affinity class of cell surface receptors for MIF on IFNγ-activated THP-1 monocytes; experiment: as above
# [3] = molecular target: Higher affinity class of cell surface receptors for MIF on IFNγ-activated THP-1 monocytes; experiment: flow cytometry, Scatchard analysis, Alexa-MIF (0-1.5 µM as trimer) on IFNγ-treated THP-1 cells at 4° C.
# [4] = molecular target: Lower affinity class of cell surface receptors for MIF on IFNγ-activated THP-1 monocytes; experiment: as above
binder,measurement,setting,value
"Alexa 488-MIF conjugate (human recombinant MIF conjugated to Alexa 488) (ligand, UniProt P14174 2-115, looked up, Alexa 488 dye conjugated; average ratio of dye ligand to MIF homotrimer was 1:3; site of attachment not stated) PMFIVNTNVPRASVPDGFLSELTQQLAQATGKPPQYIAVHVVPDQLMAFGGSSEPCALCSLHSIGKIGGAQNRSYSKLLCGLLAERLRISPDRVYINYYDMNAANVGWNNSTFA",binding sites per cell (binding sites per cell),[1],31000
same,sites per cell (sites per cell),[2],49000
same,Kd,[3],37 nM
same,Kd,[4],350 nM
